Data on 1 substance can be found in patent publication US20250345339A1, “DOSES AND REGIMENS OF HER2 INHIBITORS” (IAMBIC THERAPEUTICS, INC., priority 2024, published 2025).

Entries after “also recorded” stand apart in the source; their conditions may differ.

In general, TGI refers to the reduction of tumour growth relative to the control group. Low readings indicate a weaker effect on the tumour, high ones a stronger effect on the tumour.

In experiment [1] the test system is NCI-N87-luciferase gastric cancer cell line. Put plainly: Intracranial NCI-N87-luciferase tumor model.
In experiment [2] the test system is BT-474 breast cancer cell line. As to the kind of experiment: BT-474 xenograft tumor growth inhibition. The format is in vivo, mouse. The protocol: The BT-474 cell line was maintained in vitro as monolayer culture in DMEM supplemented with 10% fetal bovine serum and 0.01 mg/mL BI at 37° C. in an atmosphere of 5% CO2 in air. The tumor cells were routinely sub-cultured after confluence by trypsin-EDTA treatment, not to exceed 4-5 passages. The cells growing in an exponential growth phase were harvested and counted for tumor inoculation. One day before inoculating the BT-474 tumor cells, estradiol benzoate injection was administered by subcutaneous (s.c.) injection at the dose of 40 g/20 L/mouse, twice weekly till the end of the study. Each mouse was inoculated subcutaneously on the right flank (efficacy study and part II of PK study) or orthotopic on 4th right mammary fat pad (part I of PK study) with tumor cells with the single cell suspension (1×107) in 200 μL DMEM and Matrigel mixture (1:1 ratio) without serum for the tumor development.
Tumor size and body weight measurement was conducted twice weekly.

A further experiment deals with NCI-H2030. Put plainly: NCI-H2030 tumor model. It is filed as in vivo, mouse. Conditions: 10 mg/kg IV Q3W for 30 days.

fam-trastuzumab deruxtecan-nxki [T-DXd]: the “antitumor effect in intracranial model, in words” value in experiment [1] (NCI-N87-luc intracranial xenograft) is “tumor stasis; also recorded: tumor static effect”. For the same substance, the “tumor regression, in words” value in experiment [1] (intracranial NCI-N87, 5 mg/kg IV Q3W) is listed as “no tumor regression”. The “Tumor Growth Inhibition” value in experiment [1] (intracranial NCI-N87, 5 mg/kg Q3W IV, Day 5) was found to be 47%. Further, the “tumor regression (TR)” value in experiment [2] (5 mg/kg Q3W IV) is “T-DXd: 64% TR at 5”. Further, the “TR compared with Compound 5” value in experiment [2] (clinical reference compounds) was “significantly less TR than Compound 5”. The TGI in the experiment with NCI-H2030 was found to be 84%.
